# Source: PubChem BioAssay (NCI)
#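 Briefly, cells in 96-well plates were exposed to five compound concentrations for 48 h, and endpoints were estimated by linear interpolation. GI50 is the concentration that inhibits growth by half. Definition used: TGI = concentration required for complete inhibition of growth.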
# How the values were obtained:
# Experiment in all cases: NCI-60 cell line screen, 48 h
# [1] = system: RXF 393 renal
# [2] = system: MDA-MB-435
# [3] = system: A549 NSCLC
# [4] = system: MCF7 breast
# [5] = system: NCI-H226 lung
# [6] = system: NCI-H322M lung
# [7] = system: SF-268 CNS
# [8] = system: SK-MEL-5 melanoma
# [9] = system: OVCAR-5 ovarian
# [10] = system: CCRF-CEM leukemia
# [11] = system: NCI-H460 lung
# [12] = system: T-47D breast
# [13] = system: SR leukemia
# [14] = system: OVCAR-3 ovarian
# [15] = system: OVCAR-8 ovarian
# [16] = system: SNB-75 CNS
# [17] = system: A498 renal
# [18] = system: HOP-92 NSCLC
# [19] = system: SW-620 colon
# [20] = system: UACC-257 melanoma
# [21] = system: OVCAR-4 ovarian
# [22] = system: TK-10 renal
# [23] = system: HOP-62 NSCLC
# [24] = system: SK-OV-3 ovarian
# [25] = system: UACC-62 melanoma
# [26] = system: COLO 205 colon
# [27] = system: KM12 colon
# [28] = system: K-562 leukemia
# [29] = system: HCT-15 colon
# [30] = system: NCI/ADR-RES ovarian
# [31] = system: CAKI-1 renal
# [32] = system: EKVX NSCLC
# [33] = system: HL-60(TB) leukemia
# [34] = system: UO-31 renal
# [35] = system: 786-0 renal
# [36] = system: LOX IMVI melanoma
# [37] = system: HCT-116 colon
# [38] = system: HCC-2998 colon
# [39] = system: MOLT-4 leukemia
# [40] = system: SN12C renal
# [41] = system: NCI-H23 lung
# [42] = system: DU-145 prostate
# [43] = system: RPMI-8226 leukemia
# [44] = system: M14 melanoma
# [45] = system: HS 578T breast
# [46] = system: SF-295 CNS
# [47] = system: NCI-H522 lung
# [48] = system: HT29 colon
# [49] = system: ACHN renal
# [50] = system: SF-539 CNS
# [51] = system: MDA-N
smiles,measurement,setting,value
CCP1(=O)OC(C)(C)CN1C(C)(C)C (configuration not stated),GI50,[1],> 100 µM
same,TGI,[1],> 100 µM
same,GI50,[2],> 100 µM
same,TGI,[2],> 100 µM
same,GI50,[3],> 100 µM
same,TGI,[3],> 100 µM
same,GI50,[4],> 100 µM
same,TGI,[4],> 100 µM
same,GI50,[5],> 100 µM
same,TGI,[5],> 100 µM
same,GI50,[6],> 100 µM
same,TGI,[6],> 100 µM
same,GI50,[7],> 100 µM
same,TGI,[7],> 100 µM
same,GI50,[8],> 100 µM
same,TGI,[8],> 100 µM
same,GI50,[9],> 100 µM
same,TGI,[9],> 100 µM
same,GI50,[10],> 100 µM
same,TGI,[10],> 100 µM
same,GI50,[11],> 100 µM
same,TGI,[11],> 100 µM
same,GI50,[12],> 100 µM
same,TGI,[12],> 100 µM
same,GI50,[13],> 100 µM
same,TGI,[13],> 100 µM
same,GI50,[14],> 100 µM
same,TGI,[14],> 100 µM
same,GI50,[15],> 100 µM
same,TGI,[15],> 100 µM
same,GI50,[16],> 100 µM
same,TGI,[16],> 100 µM
same,GI50,[17],> 100 µM
same,TGI,[17],> 100 µM
same,GI50,[18],> 100 µM
same,TGI,[18],> 100 µM
same,GI50,[19],> 100 µM
same,TGI,[19],> 100 µM
same,GI50,[20],> 100 µM
same,TGI,[20],> 100 µM
same,GI50,[21],> 100 µM
same,TGI,[21],> 100 µM
same,GI50,[22],> 100 µM
same,TGI,[22],> 100 µM
same,GI50,[23],> 100 µM
same,TGI,[23],> 100 µM
same,GI50,[24],> 100 µM
same,TGI,[24],> 100 µM
same,GI50,[25],> 100 µM
same,TGI,[25],> 100 µM
same,GI50,[26],> 100 µM
same,TGI,[26],> 100 µM
same,GI50,[27],> 100 µM
same,TGI,[27],> 100 µM
same,GI50,[28],> 100 µM
same,TGI,[28],> 100 µM
same,GI50,[29],> 100 µM
same,TGI,[29],> 100 µM
same,GI50,[30],> 100 µM
same,TGI,[30],> 100 µM
same,GI50,[31],> 100 µM
same,TGI,[31],> 100 µM
same,GI50,[32],> 100 µM
same,TGI,[32],> 100 µM
same,GI50,[33],> 100 µM
same,TGI,[33],> 100 µM
same,GI50,[34],> 100 µM
same,TGI,[34],> 100 µM
same,GI50,[35],> 100 µM
same,TGI,[35],> 100 µM
same,GI50,[36],> 100 µM
same,TGI,[36],> 100 µM
same,GI50,[37],> 100 µM
same,TGI,[37],> 100 µM
same,GI50,[38],> 100 µM
same,TGI,[38],> 100 µM
same,GI50,[39],> 100 µM
same,TGI,[39],> 100 µM
same,GI50,[40],> 100 µM
same,TGI,[40],> 100 µM
same,GI50,[41],> 100 µM
same,TGI,[41],> 100 µM
same,GI50,[42],> 100 µM
same,TGI,[42],> 100 µM
same,GI50,[43],> 100 µM
same,TGI,[43],> 100 µM
same,GI50,[44],> 100 µM
same,TGI,[44],> 100 µM
same,GI50,[45],> 100 µM
same,TGI,[45],> 100 µM
same,GI50,[46],> 100 µM
same,TGI,[46],> 100 µM
same,GI50,[47],> 100 µM
same,TGI,[47],> 100 µM
same,GI50,[48],> 100 µM
same,TGI,[48],> 100 µM
same,GI50,[49],> 100 µM
same,TGI,[49],> 100 µM
same,GI50,[50],> 100 µM
same,TGI,[50],> 100 µM
same,GI50,[51],> 100 µM
same,TGI,[51],> 100 µM
